The source of these data is PubChem BioAssay AID1347074 (Center for Chemical Genomics, University of Michigan, 2019).

Amino acid sequences for entries named in this document (tags omitted).
UniProt Q9UPY3, whole entry, looked up: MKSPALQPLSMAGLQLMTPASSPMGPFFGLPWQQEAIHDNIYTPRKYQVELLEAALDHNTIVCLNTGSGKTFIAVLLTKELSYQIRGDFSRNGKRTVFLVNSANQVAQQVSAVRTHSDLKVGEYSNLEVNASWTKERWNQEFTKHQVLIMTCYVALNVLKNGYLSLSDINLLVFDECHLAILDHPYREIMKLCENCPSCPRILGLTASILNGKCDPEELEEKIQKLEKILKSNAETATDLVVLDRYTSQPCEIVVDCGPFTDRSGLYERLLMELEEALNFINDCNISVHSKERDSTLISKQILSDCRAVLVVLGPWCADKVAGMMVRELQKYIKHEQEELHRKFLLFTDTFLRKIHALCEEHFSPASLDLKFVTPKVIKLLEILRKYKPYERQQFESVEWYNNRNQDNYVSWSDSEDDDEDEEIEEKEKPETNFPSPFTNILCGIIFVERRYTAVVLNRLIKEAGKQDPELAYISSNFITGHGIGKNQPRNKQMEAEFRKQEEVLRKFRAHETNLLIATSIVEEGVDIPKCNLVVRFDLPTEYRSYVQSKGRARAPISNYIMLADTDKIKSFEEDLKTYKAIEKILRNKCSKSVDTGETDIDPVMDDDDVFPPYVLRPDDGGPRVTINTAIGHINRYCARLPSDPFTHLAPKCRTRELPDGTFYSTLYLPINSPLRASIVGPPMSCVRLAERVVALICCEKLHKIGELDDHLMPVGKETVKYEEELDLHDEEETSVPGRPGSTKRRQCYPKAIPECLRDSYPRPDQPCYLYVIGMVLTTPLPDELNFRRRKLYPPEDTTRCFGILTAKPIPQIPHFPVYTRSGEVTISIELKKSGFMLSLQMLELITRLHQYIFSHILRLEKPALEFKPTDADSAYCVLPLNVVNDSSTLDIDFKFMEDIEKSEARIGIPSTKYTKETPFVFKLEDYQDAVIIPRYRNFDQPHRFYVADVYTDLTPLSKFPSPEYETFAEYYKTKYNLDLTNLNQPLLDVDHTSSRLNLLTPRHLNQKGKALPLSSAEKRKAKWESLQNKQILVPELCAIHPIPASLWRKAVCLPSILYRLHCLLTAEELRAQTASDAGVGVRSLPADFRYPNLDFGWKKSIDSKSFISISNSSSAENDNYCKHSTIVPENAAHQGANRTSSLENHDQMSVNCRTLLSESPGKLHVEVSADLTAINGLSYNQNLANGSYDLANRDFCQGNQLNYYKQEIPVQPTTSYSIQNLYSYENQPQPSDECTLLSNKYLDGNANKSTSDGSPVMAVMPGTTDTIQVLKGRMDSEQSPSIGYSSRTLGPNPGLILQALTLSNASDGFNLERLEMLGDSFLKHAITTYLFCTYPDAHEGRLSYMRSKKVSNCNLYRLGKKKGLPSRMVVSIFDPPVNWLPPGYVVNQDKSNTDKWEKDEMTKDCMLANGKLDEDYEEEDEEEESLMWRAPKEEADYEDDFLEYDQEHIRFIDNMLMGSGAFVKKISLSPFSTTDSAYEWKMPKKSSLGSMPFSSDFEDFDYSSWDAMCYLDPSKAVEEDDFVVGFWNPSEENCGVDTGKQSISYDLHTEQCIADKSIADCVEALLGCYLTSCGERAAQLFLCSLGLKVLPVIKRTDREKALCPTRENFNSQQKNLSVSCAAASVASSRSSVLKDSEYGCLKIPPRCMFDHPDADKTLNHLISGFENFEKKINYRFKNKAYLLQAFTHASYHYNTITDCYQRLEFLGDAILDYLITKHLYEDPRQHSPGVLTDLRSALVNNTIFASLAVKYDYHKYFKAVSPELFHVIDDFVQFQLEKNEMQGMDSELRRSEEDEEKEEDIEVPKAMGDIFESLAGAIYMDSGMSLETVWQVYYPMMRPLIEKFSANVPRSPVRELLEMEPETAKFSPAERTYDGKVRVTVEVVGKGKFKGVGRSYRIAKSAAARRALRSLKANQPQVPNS

This is a selection; strong and weak results do not stand in their true shares. Calls of active or inactive are those of the source. Rule as the data show it: active = z-score above about 3 (passing the limit was not always enough); inactive = the rest.

This assay addresses Endoribonuclease Dicer (Homo sapiens) (UniProt Q9UPY3). As to the kind of experiment: Dicer cleavage of pre-miR-21 blockers – biochemical, cat-ELCCA, chemiluminescence, primary screen (AID 1347074).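 Also: plate controls were vehicle for no effect and no enzyme for full effect; higher signal means more uncleaved substrate so more Dicer inhibition.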 As to conditions: cat-ELCCA pre-miR-21 Dicer processing, at 25 µM, stronger effect = higher value.
Regarding `O=C(O)C1(O)c2ccccc2-c2ccccc21`, the z-score was inactive: -0.26. Turning to `CN(C)CCOC(=O)C(O)(c1ccccc1)c1ccccc1`, the z-score is inactive: 0.11. As for `C=CCN1CCN(CCOC(=O)C(O)(c2ccccc2)c2ccccc2)CC1`, the figure is inactive: 0.32.

In the case of `C/C1=C2N=C(/C=C3N=C(/C(C)=C4\[N-][C@@](C)([C@@H]5N=C1[C@](C)(CCC(=O)NC[C@@H](C)OP(=O)([O-])O[C@H]1[C@@H](O)[C@@H](n6cnc7cc(C)c(C)cc76)O[C@@H]1CO)[C@H]5CC(N)=O)[C@@](C)(CC(N)=O)[C@@H]4CCC(N)=O)[C@@](C)(CC(N)=O)[C@@H]\3CCC(N)=O)C(C)(C)[C@@H]/2CCC(N)=O.[C-]#N.[Co+3]`, the z-score is inactive: -0.04. As for `CN(C)CCOC(=O)C(O)(c1ccccc1)C1CCCC1` (stereo not given), the figure is inactive: 0.83.
